Measurements reported in US9765153B2, “Anti-biotin antibodies and methods of use” (Hoffmann-La Roche Inc., priority 2012, dated 2017).

Tested on: biotinylated protein
Test: Biolayer interferometry (BLI, Octet QK) binding of captured antibody to biotinylated protein
Settings: biosensors coated with control antibody
Experimental: The binding properties of the recombinant chimeric and humanized anti-biotin antibody and a variant thereof, which has a cysteine at position 53 in the HVR-H2 according to the numbering of Kabat, were analyzed by biolayer interferometry (BLI) technology using an Octet QK instrument (Fortebio Inc.). This system is well established for the study of molecule interactions. BLi-technology is based on the measurement of the interference pattern of white light reflected from the surface of a biosensor tip and an internal reference. Binding of molecules to the biosensor tip is resulting in a shift of the interference pattern which can be measured. To analyze if the humanization procedure described above diminished the ability of the anti-biotin antibody to bind to biotin, the properties of the chimeric and the humanized versions of the antibody in their ability to bind to a biotinylated protein were compared directly. Binding studies were performed by capturing anti-biotin antibody on anti-huIgG Fc antibody Capture (AHC) Biosensors (Fortebio Inc.). […] Binding was measured by incubating the antibody-coated biosensors in a solution containing biotinylated protein with a concentration of 0.06 mg/ml in 20 mM histidine, 140 mM NaCl, pH 6.0 for 5 min. Dissociation was monitored for 5 min. in 1× PBS pH 7.4. […]

Substance: Herceptin: control antibody coated on biosensors, which does not bind biotin
- binding of biotin (control antibody coated on biosensors): does not bind biotin
